Molecules are shown by their SMILES. Marks after values point to notes of the source that are not given here.

The series concerns TK6 cells. To be noted: positive control 0.1 µg/mL (0.3 µM); 3 h -S9 mix; p < 0.01. As for the experimental part:
These articles have been recommended for use in the OECD test guideline (Test No. 487)[49]. For metabolic activation, pre-cultured TK6 cells with the culture medium were supplemented with Sprague–Dawley rat liver mix (S9 mix, IEDA TRADING CORPORATION, Japan) at 3.33 vol%. Then, compound was mixed with the cell suspension and treated under the following treatment conditions: • Short-term treatment for 3 h without S9 mix, followed by a 21-h culture (−S9 mix assay), • Short-term treatment for 3 h with S9 mix, followed by a 21-h culture (+S9 mix assay), or • Continuous treatment for 24 h without S9 mix (24-h assay). […] To perform scoring for compound and negative control groups, the number of cells in the suspensions was counted using a Coulter Counter (Z2; Beckman Coulter, Inc.). The positive control groups were not determined. […] The cell number per 1 mL at each culture was calculated by the following formula. […]
The population doubling (PD) and relative population doubling (RPD) at each concentration was calculated by the following formula. […]
RPD%=PD of the compound-treated group/PD of the negative control group×100 For the treated groups, the 3 consecutive concentrations were selected as follows. […] For all concentrations, 4000 mononuclear cells with cytoplasm were analyzed and the number of cells with micronucleus (micronuclei) was counted using a microscope (× 600). […]

`CO[C@@]12[C@H](COC(N)=O)C3=C(C(=O)C(C)=C(N)C3=O)N1C[C@@H]1N[C@@H]12` [MMC, Mitomycin, reference compound]: the “Micronucleated cells (%)” value is “(2.95) ** %”.

Values taken from article PMC7562719, “Discovery of a CNS penetrant small molecule SMN2 splicing modulator with improved tolerability for spinal muscular atrophy” (Scientific Reports, 2020).
